This passage reports Emax results from ChEMBL document CHEMBL5236643, “Discovery and characterization of orally bioavailable 4-chloro-6-fluoroisophthalamides as covalent PPARG inverse-agonists” (Bioorg Med Chem, 2023).

Experiment [1] deals with T1, Peroxisome proliferator-activated receptor alpha (Homo sapiens) (UniProt Q07869).
T1 sequence (whole entry): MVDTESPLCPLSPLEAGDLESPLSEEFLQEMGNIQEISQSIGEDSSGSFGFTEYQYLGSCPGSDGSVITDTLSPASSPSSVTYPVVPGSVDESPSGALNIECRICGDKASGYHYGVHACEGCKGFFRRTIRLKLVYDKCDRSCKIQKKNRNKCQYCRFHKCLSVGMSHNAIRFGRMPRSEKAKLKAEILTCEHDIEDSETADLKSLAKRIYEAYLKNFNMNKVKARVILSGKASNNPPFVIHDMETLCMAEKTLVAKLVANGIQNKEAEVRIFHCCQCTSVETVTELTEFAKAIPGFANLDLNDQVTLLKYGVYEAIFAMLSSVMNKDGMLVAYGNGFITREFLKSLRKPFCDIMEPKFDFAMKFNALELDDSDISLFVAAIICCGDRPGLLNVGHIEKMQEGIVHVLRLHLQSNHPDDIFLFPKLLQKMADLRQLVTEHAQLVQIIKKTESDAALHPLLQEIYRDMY
As to the kind of experiment: Agonist activity at human PPARalpha expressed in CHO cells co-expressing GAL4-NHR-LBD assessed as transcriptional activation by measuring maximum efficacy preincubated for 6 hrs followed by luciferin addition by luminescence method. In kind it is cell-based. The note with it: filed as agonist.

The target of experiment [2] is T2, Peroxisome proliferator-activated receptor delta (Homo sapiens) (UniProt Q03181).
T2 sequence (whole entry): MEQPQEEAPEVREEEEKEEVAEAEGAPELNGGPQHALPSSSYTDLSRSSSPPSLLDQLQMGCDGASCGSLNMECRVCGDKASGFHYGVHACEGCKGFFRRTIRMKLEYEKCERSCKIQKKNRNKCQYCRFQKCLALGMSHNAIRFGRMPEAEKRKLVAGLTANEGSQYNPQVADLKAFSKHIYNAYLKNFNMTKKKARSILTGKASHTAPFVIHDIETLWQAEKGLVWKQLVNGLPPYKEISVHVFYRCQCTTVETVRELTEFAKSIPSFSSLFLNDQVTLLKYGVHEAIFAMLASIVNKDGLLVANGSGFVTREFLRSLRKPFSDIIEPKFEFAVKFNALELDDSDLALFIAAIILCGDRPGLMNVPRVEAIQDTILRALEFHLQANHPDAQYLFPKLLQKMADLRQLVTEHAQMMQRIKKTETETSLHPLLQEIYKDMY
As to the kind of experiment: Inverse agonist activity at human PPARdelta expressed in CHO cells co-expressing GAL4-NHR-LBD assessed as transcriptional repression by measuring maximum efficacy preincubated for 6 hrs followed by luciferin addition by luminescence method. In kind it is cell-based. The note with it: filed as inverse agonist.

Take `Cc1c(C)n(Cc2ccc(Cl)c(O[C@@H](C)C(=O)O)c2)c2ccc(C(=O)N[C@@H](C)c3ccc(C(C)(C)C)cc3)cc12`: the Emax came out at 1610% in experiment [1] and 103% in experiment [2].
